Among the data in ChEMBL document CHEMBL1155439, “Transient receptor potential ankyrin 1 (TRPA1) channel as emerging target for novel analgesics and anti-inflammatory agents” (J Med Chem, 2010) are EC50 and IC50 values, retold here.

Protein sequences, listed by entry. Tags and fused reporters are not part of them.
UniProt Q6RI86, whole entry, looked up: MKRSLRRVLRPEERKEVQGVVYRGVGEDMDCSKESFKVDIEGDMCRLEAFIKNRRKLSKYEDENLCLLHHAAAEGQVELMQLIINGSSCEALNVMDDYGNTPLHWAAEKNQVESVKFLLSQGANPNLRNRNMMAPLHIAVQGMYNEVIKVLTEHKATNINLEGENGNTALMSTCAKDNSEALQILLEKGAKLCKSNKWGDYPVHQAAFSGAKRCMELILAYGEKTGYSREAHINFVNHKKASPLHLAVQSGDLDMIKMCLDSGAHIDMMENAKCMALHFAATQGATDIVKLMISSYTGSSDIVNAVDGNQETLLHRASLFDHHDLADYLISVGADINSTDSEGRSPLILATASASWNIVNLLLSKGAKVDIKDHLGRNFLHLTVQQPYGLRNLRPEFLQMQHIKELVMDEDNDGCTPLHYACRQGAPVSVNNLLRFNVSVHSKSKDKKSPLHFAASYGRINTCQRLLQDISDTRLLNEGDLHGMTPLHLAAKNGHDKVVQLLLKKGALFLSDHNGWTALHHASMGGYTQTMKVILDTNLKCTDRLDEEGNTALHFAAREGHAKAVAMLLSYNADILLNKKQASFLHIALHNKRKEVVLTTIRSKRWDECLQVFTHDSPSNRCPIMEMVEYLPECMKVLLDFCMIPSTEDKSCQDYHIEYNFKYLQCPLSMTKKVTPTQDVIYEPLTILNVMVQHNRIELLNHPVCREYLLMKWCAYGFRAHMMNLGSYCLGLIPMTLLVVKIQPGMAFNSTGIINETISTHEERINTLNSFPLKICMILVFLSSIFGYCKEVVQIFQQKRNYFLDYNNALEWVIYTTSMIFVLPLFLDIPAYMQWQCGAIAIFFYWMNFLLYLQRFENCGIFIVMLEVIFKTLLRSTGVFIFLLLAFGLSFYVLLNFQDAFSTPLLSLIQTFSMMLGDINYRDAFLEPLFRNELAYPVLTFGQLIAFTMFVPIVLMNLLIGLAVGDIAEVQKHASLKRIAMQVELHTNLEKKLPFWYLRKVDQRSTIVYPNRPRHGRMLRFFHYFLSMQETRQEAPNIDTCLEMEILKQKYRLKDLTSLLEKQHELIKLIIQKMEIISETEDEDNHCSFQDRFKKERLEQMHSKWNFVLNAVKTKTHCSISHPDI
UniProt O75762, whole entry, looked up: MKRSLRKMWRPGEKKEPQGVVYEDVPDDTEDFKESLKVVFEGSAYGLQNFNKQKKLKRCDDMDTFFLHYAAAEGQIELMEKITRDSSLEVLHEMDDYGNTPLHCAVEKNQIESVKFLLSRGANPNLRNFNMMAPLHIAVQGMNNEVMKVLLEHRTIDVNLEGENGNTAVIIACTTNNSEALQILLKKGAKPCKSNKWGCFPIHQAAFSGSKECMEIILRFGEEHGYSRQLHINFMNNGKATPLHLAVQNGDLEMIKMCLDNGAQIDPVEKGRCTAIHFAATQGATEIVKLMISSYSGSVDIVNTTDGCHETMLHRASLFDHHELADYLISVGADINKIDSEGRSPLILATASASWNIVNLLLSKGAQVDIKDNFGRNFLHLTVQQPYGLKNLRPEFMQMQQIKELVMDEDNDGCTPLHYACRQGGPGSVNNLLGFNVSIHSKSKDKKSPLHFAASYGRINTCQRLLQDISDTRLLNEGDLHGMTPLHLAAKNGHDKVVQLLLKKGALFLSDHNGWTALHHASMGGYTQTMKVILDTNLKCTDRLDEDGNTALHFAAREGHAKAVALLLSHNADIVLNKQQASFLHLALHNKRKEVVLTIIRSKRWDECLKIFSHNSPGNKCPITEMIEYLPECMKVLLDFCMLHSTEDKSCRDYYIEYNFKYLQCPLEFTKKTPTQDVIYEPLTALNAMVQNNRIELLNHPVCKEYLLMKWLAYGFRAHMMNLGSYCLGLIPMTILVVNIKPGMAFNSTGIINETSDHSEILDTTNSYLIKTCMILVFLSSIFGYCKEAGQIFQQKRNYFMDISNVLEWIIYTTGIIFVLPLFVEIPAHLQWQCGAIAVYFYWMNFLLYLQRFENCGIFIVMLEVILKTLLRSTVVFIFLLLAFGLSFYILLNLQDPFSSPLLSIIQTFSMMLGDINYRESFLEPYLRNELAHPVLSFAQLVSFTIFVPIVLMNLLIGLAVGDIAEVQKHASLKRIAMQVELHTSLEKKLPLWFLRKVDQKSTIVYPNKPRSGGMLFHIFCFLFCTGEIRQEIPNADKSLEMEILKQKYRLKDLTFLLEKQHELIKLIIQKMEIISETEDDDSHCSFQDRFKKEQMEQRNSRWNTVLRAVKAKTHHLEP

Broadly, the EC50 is the concentration giving half of the maximal effect. By IC50 is commonly meant the concentration that inhibits the measured activity by half.

Experiment [1] addresses Transient receptor potential cation channel subfamily A member 1 (Rattus norvegicus, UniProt Q6RI86). The experiment is described as follows: Agonist activity at TRPA1 channel in rat DRG neurons assessed as increase in intracellular calcium influx. A general note: A change in cytosolic calcium serves as a functional read-out for many receptors and channels.
The target of experiment [2] is Transient receptor potential cation channel subfamily A member 1 (Homo sapiens, UniProt O75762). The experiment is described as follows: Antagonist activity at human TRPA1 channel assessed as inhibition of allyl isothiocyanate-induced intracellular calcium influx.

For `Cc1ccc(C(=O)NC(Sc2ccc(Cl)cc2)C(Cl)(Cl)Cl)cc1` (configuration not stated), the EC50 in experiment [1] worked out at 3.8 nM. Moreover, the IC50 in experiment [2] was found to be 1400 nM. Take `O=C(NC(Sc1ccc(Cl)cc1)C(Cl)(Cl)Cl)c1ccccc1` (configuration not stated): the half-maximal effective concentration (EC50) in experiment [1] was found to be 66 nM. Still for that read-out and setting: next, `Cc1ccc(C(=O)NC(Sc2ccc([N+](=O)[O-])cc2)C(Cl)(Cl)Cl)cc1` (configuration not stated): 4 nM. Take `CC(=O)SC(NC(=O)c1ccc(Cl)cc1)C(Cl)(Cl)Cl` (configuration not stated): the EC50 in experiment [1] is 15 nM. Also, in experiment [2], the IC50 is 1100 nM. On to `COc1ccc(C(=O)NC(Sc2ccc(Cl)cc2)C(Cl)(Cl)Cl)cc1` (configuration not stated), for which the EC50 in experiment [1] came to 115 nM.
